The values that follow come from patent US8959984B2, “Proteome-wide quantification of small molecule binding to cellular target proteins” (priority 2007, dated 2015).

Sequences of proteins named here, by UniProt entry; tags and fusion partners are left off. A change or cut given only in a name is not applied to a line headed by its entry.
UniProt O75716, whole entry: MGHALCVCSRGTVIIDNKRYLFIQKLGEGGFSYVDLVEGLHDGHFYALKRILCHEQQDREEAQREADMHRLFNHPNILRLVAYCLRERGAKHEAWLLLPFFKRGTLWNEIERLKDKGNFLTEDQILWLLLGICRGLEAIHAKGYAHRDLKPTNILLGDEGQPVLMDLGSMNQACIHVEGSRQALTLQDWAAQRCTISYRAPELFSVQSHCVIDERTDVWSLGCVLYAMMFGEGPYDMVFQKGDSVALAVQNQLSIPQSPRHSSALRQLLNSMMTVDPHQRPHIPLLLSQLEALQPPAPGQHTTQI
UniProt O96013: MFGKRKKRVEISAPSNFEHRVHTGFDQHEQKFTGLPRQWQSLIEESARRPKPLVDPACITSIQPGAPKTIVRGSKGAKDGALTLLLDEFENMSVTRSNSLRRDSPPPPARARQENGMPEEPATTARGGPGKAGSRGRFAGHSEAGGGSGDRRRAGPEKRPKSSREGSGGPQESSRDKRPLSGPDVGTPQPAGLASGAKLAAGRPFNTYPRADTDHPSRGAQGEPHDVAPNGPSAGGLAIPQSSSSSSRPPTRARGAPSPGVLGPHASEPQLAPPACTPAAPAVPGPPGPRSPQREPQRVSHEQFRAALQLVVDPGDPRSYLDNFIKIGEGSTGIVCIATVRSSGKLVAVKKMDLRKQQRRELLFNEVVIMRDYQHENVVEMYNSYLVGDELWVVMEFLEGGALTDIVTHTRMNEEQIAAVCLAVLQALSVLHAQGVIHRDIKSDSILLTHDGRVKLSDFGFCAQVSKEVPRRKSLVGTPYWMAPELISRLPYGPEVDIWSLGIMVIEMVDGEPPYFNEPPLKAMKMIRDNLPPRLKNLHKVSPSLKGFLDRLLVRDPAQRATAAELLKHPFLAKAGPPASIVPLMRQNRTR
UniProt Q00537: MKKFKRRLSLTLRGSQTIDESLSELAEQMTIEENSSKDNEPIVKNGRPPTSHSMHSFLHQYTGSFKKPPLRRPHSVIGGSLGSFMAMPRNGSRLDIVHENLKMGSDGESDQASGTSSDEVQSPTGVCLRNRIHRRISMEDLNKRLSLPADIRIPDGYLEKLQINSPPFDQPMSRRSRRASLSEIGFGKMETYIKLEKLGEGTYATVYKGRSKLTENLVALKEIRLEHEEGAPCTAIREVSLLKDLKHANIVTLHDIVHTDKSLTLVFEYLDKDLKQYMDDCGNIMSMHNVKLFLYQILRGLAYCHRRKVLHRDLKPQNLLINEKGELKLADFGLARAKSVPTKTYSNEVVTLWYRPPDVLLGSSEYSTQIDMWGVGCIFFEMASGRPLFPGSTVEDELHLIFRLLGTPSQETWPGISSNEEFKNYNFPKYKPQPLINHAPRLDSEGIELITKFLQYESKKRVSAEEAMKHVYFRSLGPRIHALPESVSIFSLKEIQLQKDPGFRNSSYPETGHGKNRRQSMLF
UniProt Q9H6S1, whole entry: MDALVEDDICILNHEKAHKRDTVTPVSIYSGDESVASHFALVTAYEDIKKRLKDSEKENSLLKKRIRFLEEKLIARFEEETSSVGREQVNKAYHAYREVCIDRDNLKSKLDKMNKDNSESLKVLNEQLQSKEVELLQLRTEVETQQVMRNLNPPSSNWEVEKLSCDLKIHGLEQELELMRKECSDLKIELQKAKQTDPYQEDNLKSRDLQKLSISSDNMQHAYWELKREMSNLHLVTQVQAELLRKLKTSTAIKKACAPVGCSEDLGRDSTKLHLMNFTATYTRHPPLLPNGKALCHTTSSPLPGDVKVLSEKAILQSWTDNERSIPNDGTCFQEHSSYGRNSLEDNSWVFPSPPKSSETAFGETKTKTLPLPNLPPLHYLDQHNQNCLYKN
UniProt P51812, whole entry: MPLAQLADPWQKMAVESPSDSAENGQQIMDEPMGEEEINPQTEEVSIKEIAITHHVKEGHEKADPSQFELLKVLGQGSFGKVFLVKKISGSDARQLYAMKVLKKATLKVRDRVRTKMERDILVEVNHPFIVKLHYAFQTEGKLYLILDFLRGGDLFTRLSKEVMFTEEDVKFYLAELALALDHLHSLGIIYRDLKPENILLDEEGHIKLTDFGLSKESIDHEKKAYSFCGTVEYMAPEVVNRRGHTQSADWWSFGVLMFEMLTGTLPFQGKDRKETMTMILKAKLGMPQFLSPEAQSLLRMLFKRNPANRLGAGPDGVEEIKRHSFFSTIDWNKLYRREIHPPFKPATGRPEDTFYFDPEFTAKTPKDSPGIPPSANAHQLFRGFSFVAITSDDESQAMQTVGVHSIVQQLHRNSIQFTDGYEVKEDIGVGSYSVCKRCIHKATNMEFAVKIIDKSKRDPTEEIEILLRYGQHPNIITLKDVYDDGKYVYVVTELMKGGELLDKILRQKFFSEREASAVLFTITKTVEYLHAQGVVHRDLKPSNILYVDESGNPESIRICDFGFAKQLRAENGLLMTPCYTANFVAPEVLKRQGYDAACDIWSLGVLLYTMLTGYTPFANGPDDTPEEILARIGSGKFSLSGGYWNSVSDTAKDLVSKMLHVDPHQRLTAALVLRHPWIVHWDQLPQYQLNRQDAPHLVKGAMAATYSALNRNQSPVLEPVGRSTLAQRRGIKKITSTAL
UniProt P48730: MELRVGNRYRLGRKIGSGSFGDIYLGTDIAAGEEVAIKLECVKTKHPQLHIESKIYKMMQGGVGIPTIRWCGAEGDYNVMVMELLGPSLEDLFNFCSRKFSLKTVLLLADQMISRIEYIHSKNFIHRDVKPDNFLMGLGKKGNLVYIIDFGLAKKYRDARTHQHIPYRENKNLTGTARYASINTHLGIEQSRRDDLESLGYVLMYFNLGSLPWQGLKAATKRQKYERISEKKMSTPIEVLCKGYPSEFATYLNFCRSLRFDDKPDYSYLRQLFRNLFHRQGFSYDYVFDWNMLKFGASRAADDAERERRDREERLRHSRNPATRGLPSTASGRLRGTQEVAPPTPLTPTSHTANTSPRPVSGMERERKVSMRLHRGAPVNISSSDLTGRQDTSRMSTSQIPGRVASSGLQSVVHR
UniProt P32320: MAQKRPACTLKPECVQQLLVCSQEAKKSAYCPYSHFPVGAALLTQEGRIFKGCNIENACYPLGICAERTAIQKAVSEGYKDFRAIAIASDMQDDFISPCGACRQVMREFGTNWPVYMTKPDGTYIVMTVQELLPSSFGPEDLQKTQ
UniProt P50053: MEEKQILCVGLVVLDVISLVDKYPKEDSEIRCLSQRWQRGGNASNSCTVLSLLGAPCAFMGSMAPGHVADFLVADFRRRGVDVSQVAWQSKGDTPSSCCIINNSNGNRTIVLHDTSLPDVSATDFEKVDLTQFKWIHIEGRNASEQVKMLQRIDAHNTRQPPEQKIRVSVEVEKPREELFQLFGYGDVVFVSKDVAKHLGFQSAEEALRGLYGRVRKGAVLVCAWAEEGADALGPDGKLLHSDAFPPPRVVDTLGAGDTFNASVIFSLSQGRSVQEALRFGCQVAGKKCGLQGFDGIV
UniProt Q07002: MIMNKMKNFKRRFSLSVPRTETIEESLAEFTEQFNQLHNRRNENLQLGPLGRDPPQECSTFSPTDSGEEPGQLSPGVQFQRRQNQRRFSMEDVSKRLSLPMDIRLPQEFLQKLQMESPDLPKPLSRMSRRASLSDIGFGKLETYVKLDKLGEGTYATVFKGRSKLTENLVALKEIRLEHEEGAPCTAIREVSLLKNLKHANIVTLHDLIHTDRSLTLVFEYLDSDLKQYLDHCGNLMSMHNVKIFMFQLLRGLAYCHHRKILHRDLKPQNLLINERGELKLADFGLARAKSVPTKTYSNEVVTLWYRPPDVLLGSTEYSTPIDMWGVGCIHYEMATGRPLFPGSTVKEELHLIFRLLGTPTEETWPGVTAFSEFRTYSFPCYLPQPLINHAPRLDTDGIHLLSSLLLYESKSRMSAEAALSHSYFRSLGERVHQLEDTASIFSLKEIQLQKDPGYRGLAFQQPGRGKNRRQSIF
UniProt Q13555: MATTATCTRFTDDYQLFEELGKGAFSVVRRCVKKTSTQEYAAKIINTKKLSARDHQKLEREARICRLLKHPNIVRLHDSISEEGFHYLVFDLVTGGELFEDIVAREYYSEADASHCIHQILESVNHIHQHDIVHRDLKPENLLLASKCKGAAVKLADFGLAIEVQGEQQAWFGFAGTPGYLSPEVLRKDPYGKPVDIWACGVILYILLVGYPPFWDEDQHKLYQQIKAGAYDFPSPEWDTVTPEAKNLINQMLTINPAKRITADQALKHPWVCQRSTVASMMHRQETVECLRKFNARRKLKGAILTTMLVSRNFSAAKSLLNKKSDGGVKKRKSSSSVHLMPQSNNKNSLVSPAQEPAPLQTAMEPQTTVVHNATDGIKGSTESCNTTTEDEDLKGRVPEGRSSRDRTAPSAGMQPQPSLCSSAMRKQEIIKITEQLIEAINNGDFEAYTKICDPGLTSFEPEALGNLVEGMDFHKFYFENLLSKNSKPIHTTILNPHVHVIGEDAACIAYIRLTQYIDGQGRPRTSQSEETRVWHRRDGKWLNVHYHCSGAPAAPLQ
UniProt P06493, whole entry: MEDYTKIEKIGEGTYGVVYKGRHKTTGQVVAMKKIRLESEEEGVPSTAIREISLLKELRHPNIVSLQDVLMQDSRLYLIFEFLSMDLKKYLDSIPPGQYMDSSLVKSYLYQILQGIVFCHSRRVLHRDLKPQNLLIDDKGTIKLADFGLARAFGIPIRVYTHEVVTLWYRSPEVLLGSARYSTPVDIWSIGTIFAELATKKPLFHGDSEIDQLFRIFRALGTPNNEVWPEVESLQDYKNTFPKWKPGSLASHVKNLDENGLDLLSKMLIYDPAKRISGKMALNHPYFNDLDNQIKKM

Test in all cases: Ki determination for immobilized VI16742: two consecutive incubations, control beads, ligand concentration and incubation time controls (Tables 7, 8)
Common to all, as to assay type: binding

The target in experiment [1] is T1, cellular target proteins in HeLa cell lysate (Homo sapiens, UniProt Q9NRH2).
T1 sequence (Q9NRH2 1-765): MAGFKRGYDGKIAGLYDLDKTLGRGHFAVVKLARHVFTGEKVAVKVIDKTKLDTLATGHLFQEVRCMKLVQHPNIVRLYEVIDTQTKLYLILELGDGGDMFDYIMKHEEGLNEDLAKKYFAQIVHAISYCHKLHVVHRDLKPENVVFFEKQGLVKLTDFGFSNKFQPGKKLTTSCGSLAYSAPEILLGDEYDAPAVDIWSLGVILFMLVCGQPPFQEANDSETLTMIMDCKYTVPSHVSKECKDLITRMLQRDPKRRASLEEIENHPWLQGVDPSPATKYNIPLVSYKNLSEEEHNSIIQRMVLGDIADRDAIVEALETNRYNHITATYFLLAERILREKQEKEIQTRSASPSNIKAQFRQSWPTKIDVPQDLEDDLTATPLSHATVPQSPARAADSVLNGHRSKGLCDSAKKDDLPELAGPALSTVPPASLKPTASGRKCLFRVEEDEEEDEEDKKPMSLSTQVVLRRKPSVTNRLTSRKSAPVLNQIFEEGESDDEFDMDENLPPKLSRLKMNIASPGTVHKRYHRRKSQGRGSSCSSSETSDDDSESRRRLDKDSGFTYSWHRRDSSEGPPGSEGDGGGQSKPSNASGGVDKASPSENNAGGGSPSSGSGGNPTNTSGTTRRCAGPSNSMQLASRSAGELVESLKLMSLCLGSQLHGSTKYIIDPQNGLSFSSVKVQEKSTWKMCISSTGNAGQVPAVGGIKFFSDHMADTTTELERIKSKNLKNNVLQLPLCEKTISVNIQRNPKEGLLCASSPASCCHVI
The text has this:
(§1) In an alternative implementation of the chemical proteomic approach according to the invention, the broadly-selective pyrido[2,3-d]pyrimidine-based kinase inhibitor VI16742 has been used for affinity capture (FIG. 10a). […] As shown by gene ontology analysis, the corresponding molecular functions were highly over-represented in proteins specifically retained by the inhibitor resin (FIG. 10b).
(§2) Cysteine carbamidomethylation was set as a fixed modification and N-acetyl protein and oxidized methionine were allowed as variable modifications. Spectra that were determined to result from heavy labeled peptides in the pre-search detection of SILAC partners by MaxQuant were searched with the fixed modifications Lys^4, Lys^8, Arg^6 and Arg^10, whereas MS/MS spectra for which no SILAC state could be assigned before database searching were searched with Lys^4, Lys^8, Arg^6 and Arg^10 as variable modifications. The mass tolerance was set to 5 ppm for monoisotopic precursor ions and to 0.5 Da for MS/MS peaks. The minimum peptide length was set to 6 amino acids and up to three missed cleavages and three isotopically labeled amino acids were permitted per peptide. The accepted false discovery rate (FDR) was 1% for the proteins and peptides. The cut-off for the posterior error probability (PEP) of peptides was set to 10%. Peptide PEPs were determined by generating Mascot score and peptide-length-dependent histograms for both the forward and the reverse hits and then deriving the probability of a false identification for a given top-scoring peptide using Bayes' theorem. The PEPs of peptides belonging to the same proteins were then multiplied. Each peptide sequence was considered only once with the lowest PEP determined in case of multiple sequencing of the same isotopic pattern or of peptide species with different SILAC, charge or modification states. Proteins were then sorted according to their products of their peptide PEPs and included until a FDR of 1% was reached according to the fraction of reverse proteins contained in the protein list. In addition to the FDR threshold applied for protein identification, proteins were only included when they were identified with at least two peptides (of which one was required to be unique for the protein) and quantified if at least on quantifiable SILAC pair was associated with them. Outliers were not removed as protein ratios were calculated as the median instead of the average of all peptide ratios. For peptides shared among different identified proteins, SILAC ratios were only considered for the ratio of the protein identified with the highest number of unique peptides. Protein ratios for the different in vitro association experiments were corrected for the initial SILAC pooling ratio, which was determined from the median of protein ratios in pooled SILAC-encoded cell extracts.

Experiment [2] has as its target cellular target proteins in HeLa cell lysate (Homo sapiens, UniProt O75716). The settings on record: Ki (VI16742), MPSK1 (STK16) IPI00306833.
Excerpt: as §1, §2

The target of experiment [3] is cellular target proteins in HeLa cell lysate (Homo sapiens, UniProt O96013). The note with it: Ki (VI16742), PAK4 IPI00014068.
Excerpt: as §1, §2

Experiment [4] concerns the target cellular target proteins in HeLa cell lysate (Homo sapiens, UniProt Q00537). The settings on record: Ki (VI16742), PCTAIRE2 (PCTK2) IPI00376955.
Excerpt: as §1, §2

The target of experiment [5] is cellular target proteins in HeLa cell lysate (Homo sapiens, UniProt Q9H6S1). The note with it: Ki (VI16742), AZI2 IPI00008255.
Excerpt: as §1, §2

Experiment [6] deals with cellular target proteins in HeLa cell lysate (Homo sapiens, UniProt P51812). The settings on record: Ki (VI16742), RSK2 (RPS6KA3) IPI00020898.
Excerpt: as §1, §2

For experiment [7], the target named is cellular target proteins in HeLa cell lysate (Homo sapiens, UniProt P48730). The note with it: Ki (VI16742), CK1d (CSNK1D) IPI00234463.
Excerpt: as §1, §2

In experiment [8] the target is cellular target proteins in HeLa cell lysate (Homo sapiens, UniProt P32320). The settings on record: Ki (VI16742), CDA IPI00027983.
Excerpt: as §1, §2

The target of experiment [9] is cellular target proteins in HeLa cell lysate (Homo sapiens, UniProt P50053). The settings on record: Ki (VI16742), KHK IPI00029488.
Excerpt: as §1, §2

Experiment [10] addresses cellular target proteins in HeLa cell lysate (Homo sapiens, UniProt Q9UEW8).
Excerpt: as §1, §2

For experiment [11], the target named is cellular target proteins in HeLa cell lysate (Homo sapiens, UniProt Q07002). The note with it: Ki (VI16742), PCTAIRE3 (PCTK3) IPI00414292.
Excerpt: as §1, §2

The target in experiment [12] is cellular target proteins in HeLa cell lysate (Homo sapiens, UniProt Q13555). The settings on record: Ki (VI16742), CaMK2g (CAMK2G) IPI00172450.
Excerpt: as §1, §2

The target of experiment [13] is cellular target proteins in HeLa cell lysate (Homo sapiens, UniProt P06493). The settings on record: Ki (VI16742), CDC2 IPI00026689.
Excerpt: as §1, §2

With `CC(C)n1c(=O)ccc2cnc(Nc3ccc(OCCN)cc3)nc21` [V16742], the inhibition constant (Ki) in [1] was found to be 60.7 µM; in experiment [2] it was 7.45 µM; in experiment [3] it was 46.3 µM; in experiment [4], 6.79 µM; in experiment [5], 8.57 µM; in experiment [6], 62.2 µM. For the same compound, the inhibitory constant (Ki) in experiment [7] turned out to be 7.74 µM; in experiment [8] it was 12.7 µM; in experiment [9] it was 25.7 µM; in experiment [10], 42.2 µM; in [11], 12.5 µM; in experiment [12] it was 1.6 µM. The same compound displayed an inhibition constant (Ki) in experiment [13] of 28 µM.

Usually Ki stands for a measure of affinity in units of concentration, obtained from inhibition or displacement. High values mean weaker binding, low ones tighter binding.
